Earlier results, collected in patent publication US9682040B2, “Phospholipid depot” (priority 2010, dated 2017).

Settings: published (Reeves 1980)

gentamicin
plasma concentrations to which gentamicin toxicity (renal and ototoxicity) is related: greater than 10 mg/L
